Source: patent publication US20090075898A1 (YEDA RESEARCH AND DEVELOPMENT CO LTD AT THE WEIZMANN …, published 2009)

T1: C5a (UniProt P01031 678-751)
T1 construct: domain: C5a; Control analyte in SPR
T1 sequence (looked up): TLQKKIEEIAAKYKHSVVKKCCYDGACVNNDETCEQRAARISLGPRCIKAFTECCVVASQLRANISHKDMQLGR


How the values were obtained:
[1] = molecular target: T2, human complement component C3a (human, UniProt P01024 672-748); test: SPR (BIACORE 2000), biotinylated peptide on streptavidin chip, C3a as analyte; Kd = koff/kon from kobs plots; first extracellular loop of the rat protein
T2 construct: also called Human C3a; complement-derived peptide C3a

[2] = molecular target: T2, human complement component C3a; test: SPR (BIACORE 2000): biotinylated 1st extracellular loop peptide of the rat FcεRI β chain on a streptavidin chip, C3a injected as analyte at 5 concentrations
C5a = molecular target: T1, C5a; test: SPR (BIACORE 2000), peptide on streptavidin chip, C5a as analyte
[3] = molecular target: T2, human complement component C3a; test: SPR (BIACORE 2000), peptide on streptavidin chip, C3a as analyte

| Binder | Kd [1] [nM] | Kd [2] [nM] | binding result (C5a) | binding result [3] |
| --- | --- | --- | --- | --- |
| Biotin-STLQTSDFDDEVLLLYRAGYPF (also called first extracellular loop of rat FcεRI β-chain) [biotinylated peptide of the 1st extracellular loop of the rat FcεRI β chain] | 520 | 250 | no binding |  |
| Biotin-NNSAYMNYCKDITEDDGCFVTS (cysteine pairing not given here, also called second extracellular loop of rat FcεRI β-chain) [biotinylated peptide of the 2nd extracellular loop of the rat FcεRI β chain] |  |  | no binding | no binding |

Ends that are not written are not given here. * marks the point of attachment. Biotin = O=C1N[C@H]2[C@H](CS[C@H]2CCCCC(=O)*)N1
